Assay results published in ChEMBL document CHEMBL2177010, “Discovery and preclinical pharmacology of a selective ATP-competitive Akt inhibitor (GDC-0068) for the treatment of human tumors” (J Med Chem, 2012).

By UniProt entry, the sequences of proteins in these tests, tags left out. Where a name states a change or a piece, a line headed by the entry shows the natural chain unless it says otherwise.
UniProt P31749: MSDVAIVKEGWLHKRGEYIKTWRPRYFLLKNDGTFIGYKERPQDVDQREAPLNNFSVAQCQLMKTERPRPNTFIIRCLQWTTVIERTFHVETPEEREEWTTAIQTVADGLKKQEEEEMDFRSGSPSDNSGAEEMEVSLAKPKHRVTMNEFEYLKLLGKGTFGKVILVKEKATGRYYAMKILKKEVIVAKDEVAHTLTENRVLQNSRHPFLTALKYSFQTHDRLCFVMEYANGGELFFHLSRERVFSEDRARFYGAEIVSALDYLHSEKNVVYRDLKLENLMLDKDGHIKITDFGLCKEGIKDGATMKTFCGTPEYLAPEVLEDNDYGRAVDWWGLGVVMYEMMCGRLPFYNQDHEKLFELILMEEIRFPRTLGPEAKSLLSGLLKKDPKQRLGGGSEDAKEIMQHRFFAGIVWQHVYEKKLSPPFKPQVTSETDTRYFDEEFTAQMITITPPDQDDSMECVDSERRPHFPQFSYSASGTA

Legend:
[1] = biological target: T1, RAC-alpha serine/threonine-protein kinase (Homo sapiens, UniProt P31749)
[2] = biological target: T1, RAC-alpha serine/threonine-protein kinase; remark: listed apart in the source

Compound | IC50 [1] | IC50 [2]
CC(C)NC[C@@H](C(=O)N1CCN(c2ncnc3c2[C@H](C)C[C@@H]3F)CC1)c1ccc(Cl)cc1 | 901 nM | 12 nM
C[C@@H]1C[C@@H](O)c2ncnc(N3CCN(C(=O)[C@H](CNC(C)(C)CO)c4ccc(C(F)(F)F)c(F)c4)CC3)c21 | 47 nM | 6 nM
C[C@@H]1C[C@@H](O)c2ncnc(N3CCN(C(=O)[C@H](CNC(C)(C)C)c4ccc(C(F)(F)F)c(F)c4)CC3)c21 | 92 nM | 3 nM
CC(C)NC[C@@H](C(=O)N1CCN(c2ncnc3c2[C@H](C)C[C@H]3F)CC1)c1ccc(Cl)cc1 | 152 nM | 4 nM
C[C@@H]1C[C@@H](O)c2ncnc(N3CCN(C(=O)[C@H](CNC4CCOCC4)c4ccc(Cl)cc4)CC3)c21 | 184 nM | 5 nM
C[C@@H]1C[C@@H](O)c2ncnc(N3CCN(C(=O)[C@H](CNCC4CC4)c4ccc(Cl)cc4)CC3)c21 | 179 nM | 5 nM
C[C@@H]1C[C@@H](O)c2ncnc(N3CCN(C(=O)[C@H](CNCC4CC4)c4ccc(C(F)(F)F)c(F)c4)CC3)c21 | 65 nM | 3 nM
